Literature values in patent US20120309677A1, “METHODS FOR REGULATING BLOOD GLUCOSE LEVELS” (Monash University, priority 2010, published 2012).

Protein sequences, listed by entry. Tags and fused reporters are not part of them. Lines headed by an entry give the natural chain unless they say otherwise; changes in a name come on top.
UniProt P33032: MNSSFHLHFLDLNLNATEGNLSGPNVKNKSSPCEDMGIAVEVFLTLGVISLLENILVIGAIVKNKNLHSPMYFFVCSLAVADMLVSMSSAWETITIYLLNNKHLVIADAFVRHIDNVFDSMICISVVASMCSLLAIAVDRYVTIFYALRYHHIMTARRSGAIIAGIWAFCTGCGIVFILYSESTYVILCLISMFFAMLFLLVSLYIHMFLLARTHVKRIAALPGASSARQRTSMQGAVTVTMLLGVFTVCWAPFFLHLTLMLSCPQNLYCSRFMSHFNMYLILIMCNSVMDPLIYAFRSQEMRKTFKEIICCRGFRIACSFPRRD

Target: hMC5R (Homo sapiens, UniProt P33032)
Conditions: cited from earlier work

Ac-Nle-c[Asp-Pro-D-Nal(2′)-Arg-Trp-Lys]-NH2 [PG-901]
EC50: 0.072 nM
